Nrf2 block – Nrf2 pathway inhibition | A549 ARE-Fluc reporter, luciferase luminescence, 18-24 h | Potency, µM (highest dose often 46 µM), without a hit: at the highest dose activity change, negative = inhibition, actives largely listed as inhibitors | 360,000 tested, 2.1% active; also: potency is read from the fitted curve at half-maximal effect; % is scaled to controls: 0 for no effect and ±100 for the full control effect; nearly all actives have a fitted effect of over 60% in size
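Concentration-response testing used A549 ARE_Fluc cells at 5000 cells/well. Following an 18-24 h compound incubation, viability was read by fluorescence (Ex 405/Em 525) and luciferase output by luminescence.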
Nrf2 activator – activates Nrf2 signaling | AID 624171 | Potency, µM (doses to about 46.1 µM), for the others: top-dose activation, most hits filed as activators | 410,000 tested, 0.31% active | AREc32 ARE-luciferase reporter (MCF7-derived line), luminescence, 24 h; also: potency is read from the fitted curve at half-maximal effect; % of control where 0% means no effect; nearly all actives have a fitted effect of over 65% in size
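Steps: seed AREc32_Fluc cells (1000/well, 5% FBS OPTI-MEM); incubate overnight at 37 deg C; add 23 nL compound; incubate 24 hr; add Steady-Glo; hold 30 min RT; read luminescence.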
miR-21 FLuc – raises the signal of a miR-21 reporter | HeLa miR-21 FLuc reporter, luciferase, 48 h | Potency, µM (highest dose often 38.3 µM), without a hit: at the top dose reporter change, positive = more light | 340,000 tested, under 10 active; active = well fitted rising curve with a large enough effect; inconclusive = small, poorly fitted or top-dose-only effect; inactive = no such curve, though single readings can be large or run the other way;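 note: % of control where 0% means no effect; miR-21 action dims this reporter so a rising signal means less miR-21 action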
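HeLa cells endogenously expressing miR-21, stably carrying CMV-driven firefly luciferase with a downstream miR-21 binding site, 2000 cells/well. Titrations up to approximately 40 uM, 48 hours; luciferase luminescence read.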
ClpP mod – qHTS Assay for Activators of ClpP | Potency, µM (top dose mostly 57.5 µM), inactives show at the highest dose activity change, negative = active | ATP-dependent Clp protease proteolytic subunit (Bacillus subtilis (strain 168)), P80244 | purified B. subtilis ClpP, FRET peptide cleavage, 20 min | 340,000 tested, 1.9% active | AID 651965, 2013; active = well fitted falling curve with a large enough effect; inconclusive = small, poorly fitted or top-dose-only effect; inactive = no such curve, though single readings can be large or run the other way; also: potency is read from the fitted curve at half-maximal effect; the source files actives as falling curves though it sought activators and does not explain the sign; nearly all actives have a fitted effect of over 65% in size
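Buffer: 100 mM Tris/HCl pH8, 100 mM KCl, 0.05% low protease BSA, 2.5% glycerol, 0.01% Tween-20. ClpP 10 microg/mL final; 20 min RT; delta FRET normalized to ADEP and DMSO controls.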
IL-2 act – activates IL-2 in a cell-based reporter assay; IL-2 activation reporter assay, cell-based qHTS; stimulated with anti-CD3/CD4/CD28 beads; in transgenic mouse T cells; activation, % (series mostly up to about 46 µM); 360,000 tested, 0.065% active; in the data active = activation above about 50%; inconclusive = mostly about 30% to 49%; also: 0% is about no effect
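First, unstimulated transgenic mouse T cells were exposed to compound for 60 min. Next, anti-CD3/anti-CD4-coated beads with anti-CD28 were added. Finally, after 18 h at 37 degrees C, EGFP and DsRed were imaged.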
A549 tox-1 – A549 cytotoxicity, counter-screen for Nrf2 inhibitors. A549 ARE-Fluc cells, CellTiter-Fluor viability, 18-24 h. Potency, µM (doses to about 46 µM), without a hit: at the top dose activity change, negative = cytotoxicity, usual class: inhibitors. 390,000 tested, 0.16% active. AID 504648; also: potency is read from the fitted curve at half-maximal effect; % is scaled to controls: 0 for no effect and ±100 for the full control effect
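A549 ARE-Fluc cells in 5% FBS OPTI-MEM, 5000 cells/well, rested 2 h then exposed to compounds in concentration-response for 18-24 h at 37 °C. Viability by CellTiter-Fluor fluorescence (Ex 405/Em 525) after 30 min; luciferase luminescence (BugLite, 15 min, RT) read afterwards.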
FLuc counter 3 – blocks purified firefly luciferase in Nrf2 counterscreen. shares compounds with Nrf2 block. purified firefly luciferase, luminescence inhibition. Potency, µM (doses to about 57.5 µM), without a hit: at the highest dose activity change, negative = inhibition, actives largely listed as inhibitors. 1,400 tested, 4% active. AID 720522; also: potency is read from the fitted curve at half-maximal effect; % is scaled to controls: 0 for no effect and ±100 for the full control effect; nearly all actives have a fitted effect of over 65% in size
A549 tox-2 – counter-screen for Nrf2 inhibitors: cytotoxicity in A549 ARE cells. shares compounds with Nrf2 block. Potency, µM (series often up to 46.1 µM), for the others: top-dose activity change, negative = cytotoxicity, most hits filed as inhibitors. 1,400 tested, 2% active. A549 ARE-Fluc cells, cytotoxicity counterscreen;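 also: potency is read from the fitted curve at half-maximal effect; cells exposed to compounds for 18 to 24 hours; % is scaled to controls: 0 for no effect and ±100 for the full control effect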
ARE-Fluc inh – Nrf2 inhibition confirmed, A549 ARE-luciferase. shares compounds with Nrf2 block. A549 ARE-firefly luciferase reporter, luminescence. Potency, µM (doses to about 46.1 µM), inactives show at the top dose activity change, negative = inhibition, actives largely listed as inhibitors. 1,400 tested, 74% active; also: potency is read from the fitted curve at half-maximal effect; % is scaled to controls: 0 for no effect and ±100 for the full control effect; nearly all actives have a fitted effect of over 65% in size
Active calls of the source: *; ? = inconclusive; . = no result shown. Rows were chosen to be rich in hits. Some 3.7% of all compounds tested hit in one or more screens of this group. Unless noted, calls follow the shape of the dose curve; as a rule, active = well fitted curve in the direction sought with a large enough effect; inconclusive = small, poorly fitted or top-dose-only effect, or another doubt; inactive = no such curve, though single readings can be large; an effect the other way counts as inactive or inconclusive.

No.	Structure	Nrf2 block	Nrf2 activator	miR-21 FLuc	ClpP mod	IL-2 act	A549 tox-1	FLuc counter 3	A549 tox-2	ARE-Fluc inh
1	O=C1CCC(C(=O)OCC(=O)c2ccccc2)N1 (stereo unspecified)	4%	0%	-2%	-1%	-2	1%	.	.	.
2	CC1CC(C)C(=O)C(C(CC2CC(=O)NC(=O)C2)OC(=O)CC(=O)c2ccccc2)C1 (stereo unspecified)	5.2µM*	-1%	.	.	0	?	2%	-19%	0.21µM*
3	COCCn1c(CN2CCN(c3cccc(Cl)c3)CC2)nc2c1c(=O)n(C)c(=O)n2C	6.5µM*	0%	11%	-1%	-3	-26%	-1%	-5%	.
4	COC(=O)c1ccccc1-c1ccc(/C=N/NC(=O)c2cc3ccccc3o2)o1	-26%	0%	1%	?	-1	0%	.	.	.
5	COC(=O)c1ccccc1-c1c2ccc(=N)cc-2oc2cc(N)ccc12	1.2µM*	-1%	.	.	3	-11%	3%	-6%	8.2µM*
6	Cc1ccc2[nH]c(CSc3nnc(NC(=O)COc4ccccc4)s3)cc(=O)c2c1	.	0%	12%	0%	.	12%	.	.	.
7	CN(C)c1nc(-c2ccccn2)nnc1-c1ccccc1	?	-1%	18%	-1%	-2	?	-2%	-13%	12µM*
8	O=C(Nc1cccn(Cc2c(Cl)cccc2Cl)c1=O)c1ccccc1Cl	1.5µM*	-1%	-5%	-18%	-4	-26%	-25%	1%	9.2µM*
9	Cc1nn(CCCC(=O)NCc2ccc(F)cc2)c(=O)c2c1sc1ccccc12	20%	0%	-22%	-12%	.	2%	.	.	.
10	COc1ccccc1CNC(=O)COc1cc(=O)n(C)c2ccccc12	-21%	1%	2%	-9%	.	-5%	.	.	.
11	O=C(Nc1ccc2oc(-c3ccncc3)nc2c1)c1ccc(F)cc1	?	-1%	-7%	0%	0	0%	.	.	.
12	Cc1cccc(C(=O)Nc2ccnc(-c3ccncc3)n2)c1	2.6µM*	0%	4%	2%	1	?	-3%	1%	-24%
13	Cc1cccc(C(=O)Nc2ccnc(-c3cccnc3)n2)c1	?	0%	0%	-1%	0	-2%	.	.	.
14	Cc1cccc(C(=O)Nc2ccc3oc(-c4ccncc4)nc3c2)c1	9.2µM*	-1%	8%	4%	.	-2%	-18%	-5%	1.5µM*
15	CCOc1ccccc1C(=O)Nc1ccc(-n2nncc2-c2ccccc2)cc1	.	0%	0%	-4%	.	9%	.	.	.
16	CCc1cc(=O)oc2c3c(c(Cl)cc12)OCN(Cc1cccc(OC)c1)C3	16%	0%	0%	4%	.	9%	.	.	.
17	COc1ccc(NC(=O)c2cc(S(=O)(=O)NCCC3=CCCCC3)ccc2F)cc1	.	0%	26%	-1%	.	-15%	.	.	.
18	COc1ccc(Cn2cccc(NC(=O)Nc3cccc(C#N)c3)c2=O)cc1	5.2µM*	3%	22%	?	-2	-10%	-17%	5%	?
19	O=C1c2ccccc2-n2c1nc1ccccc1c2=O	5.2µM*	4%	12%	-3%	0	-20%	-26%	16µM*	6.5µM*

Ordered by SMILES length (falling): part of the list above.
No.	Structure	Nrf2 block	Nrf2 activator	miR-21 FLuc	ClpP mod	IL-2 act	A549 tox-1	FLuc counter 3	A549 tox-2	ARE-Fluc inh
3	COCCn1c(CN2CCN(c3cccc(Cl)c3)CC2)nc2c1c(=O)n(C)c(=O)n2C	6.5µM*	0%	11%	-1%	-3	-26%	-1%	-5%	.
4	COC(=O)c1ccccc1-c1ccc(/C=N/NC(=O)c2cc3ccccc3o2)o1	-26%	0%	1%	?	-1	0%	.	.	.
7	CN(C)c1nc(-c2ccccn2)nnc1-c1ccccc1	?	-1%	18%	-1%	-2	?	-2%	-13%	12µM*

Assay outcomes from PubChem BioAssay.
